Measured values from ChEMBL document CHEMBL3286176, “Discovery and structure-activity relationship of novel 2,3-dihydrobenzofuran-7-carboxamide and 2,3-dihydrobenzofuran-3(2H)-one-7-carboxamide derivatives as poly(ADP-ribose)polymerase-1 inhibitors” (J Med Chem, 2014).

Protein sequences, listed by entry. Tags and fused reporters are not part of them.
UniProt P09874, whole entry: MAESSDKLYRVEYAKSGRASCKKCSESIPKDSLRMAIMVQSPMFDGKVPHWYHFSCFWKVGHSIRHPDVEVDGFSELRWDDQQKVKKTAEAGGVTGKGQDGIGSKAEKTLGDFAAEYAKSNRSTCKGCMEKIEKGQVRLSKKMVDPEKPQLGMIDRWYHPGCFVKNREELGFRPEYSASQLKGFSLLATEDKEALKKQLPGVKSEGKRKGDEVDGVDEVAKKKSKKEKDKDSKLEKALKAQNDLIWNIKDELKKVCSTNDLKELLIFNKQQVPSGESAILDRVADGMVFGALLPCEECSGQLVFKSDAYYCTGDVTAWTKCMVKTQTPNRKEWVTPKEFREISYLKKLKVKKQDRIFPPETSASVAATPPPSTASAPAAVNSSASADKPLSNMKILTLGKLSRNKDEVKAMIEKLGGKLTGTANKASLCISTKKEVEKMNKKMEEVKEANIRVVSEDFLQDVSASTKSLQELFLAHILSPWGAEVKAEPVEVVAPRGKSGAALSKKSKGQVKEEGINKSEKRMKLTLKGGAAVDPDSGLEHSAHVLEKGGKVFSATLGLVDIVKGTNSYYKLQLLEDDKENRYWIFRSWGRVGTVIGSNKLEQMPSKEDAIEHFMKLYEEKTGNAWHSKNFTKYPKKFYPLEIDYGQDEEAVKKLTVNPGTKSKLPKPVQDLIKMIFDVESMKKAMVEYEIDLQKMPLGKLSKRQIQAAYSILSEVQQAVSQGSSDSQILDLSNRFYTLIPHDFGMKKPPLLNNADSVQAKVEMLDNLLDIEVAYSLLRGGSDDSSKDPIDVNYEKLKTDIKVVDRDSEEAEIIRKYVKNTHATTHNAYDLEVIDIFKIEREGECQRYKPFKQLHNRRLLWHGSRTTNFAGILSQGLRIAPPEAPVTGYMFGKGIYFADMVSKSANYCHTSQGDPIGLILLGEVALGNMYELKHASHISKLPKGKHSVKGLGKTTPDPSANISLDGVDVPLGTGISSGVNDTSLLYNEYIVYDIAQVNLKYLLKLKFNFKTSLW

Target: Poly [ADP-ribose] polymerase 1 (Homo sapiens, UniProt P09874)
Assay: Inhibition of PARP-1 (unknown origin) using biotinylated NAD+ as substrate after 60 mins by spectrophotometry

`NC(=O)c1cccc2c1O/C(=C\c1ccccc1)C2=O` was tested, and the IC50 was 12 µM.
